Data: patent publication US20250313548A1 (Actio Biosciences, Inc., priority 2023, published 2025)

By UniProt entry, the sequences of proteins in these tests, tags left out.
UniProt Q5JUK3, whole entry: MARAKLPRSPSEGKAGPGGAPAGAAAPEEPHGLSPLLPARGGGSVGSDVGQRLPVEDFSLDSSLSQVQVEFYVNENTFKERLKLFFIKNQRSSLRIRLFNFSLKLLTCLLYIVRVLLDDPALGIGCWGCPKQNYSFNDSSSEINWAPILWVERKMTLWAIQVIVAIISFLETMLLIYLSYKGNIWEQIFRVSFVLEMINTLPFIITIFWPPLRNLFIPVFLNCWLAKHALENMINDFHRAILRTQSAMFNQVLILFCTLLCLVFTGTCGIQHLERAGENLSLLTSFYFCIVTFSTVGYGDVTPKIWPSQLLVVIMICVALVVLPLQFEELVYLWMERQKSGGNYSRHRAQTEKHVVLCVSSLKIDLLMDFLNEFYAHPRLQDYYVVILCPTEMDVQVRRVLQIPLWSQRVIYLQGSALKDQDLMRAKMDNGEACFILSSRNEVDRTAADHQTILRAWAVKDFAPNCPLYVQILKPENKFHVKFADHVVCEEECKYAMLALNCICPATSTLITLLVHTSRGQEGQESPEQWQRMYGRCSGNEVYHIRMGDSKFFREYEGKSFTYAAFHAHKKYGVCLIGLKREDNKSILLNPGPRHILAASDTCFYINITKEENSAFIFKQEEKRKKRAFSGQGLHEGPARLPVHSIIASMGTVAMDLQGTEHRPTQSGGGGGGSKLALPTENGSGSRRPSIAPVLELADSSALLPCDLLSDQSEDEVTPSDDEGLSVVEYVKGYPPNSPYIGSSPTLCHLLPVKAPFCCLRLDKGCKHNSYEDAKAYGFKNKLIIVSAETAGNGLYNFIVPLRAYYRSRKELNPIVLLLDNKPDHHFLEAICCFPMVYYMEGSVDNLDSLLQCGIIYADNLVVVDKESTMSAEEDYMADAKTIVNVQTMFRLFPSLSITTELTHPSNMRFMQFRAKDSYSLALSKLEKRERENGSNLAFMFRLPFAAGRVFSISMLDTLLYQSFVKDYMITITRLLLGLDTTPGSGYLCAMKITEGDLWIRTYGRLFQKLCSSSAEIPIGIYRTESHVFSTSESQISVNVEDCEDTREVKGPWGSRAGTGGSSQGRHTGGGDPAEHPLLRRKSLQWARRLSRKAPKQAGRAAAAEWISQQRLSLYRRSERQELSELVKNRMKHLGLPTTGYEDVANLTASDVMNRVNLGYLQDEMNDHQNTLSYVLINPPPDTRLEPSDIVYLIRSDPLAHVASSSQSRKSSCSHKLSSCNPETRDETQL

Target: human, KCNT1 (Homo sapiens (Human), UniProt Q5JUK3)
Test: FLIPR Tl/K Flux Assay
Settings: HEK293 cells stably expressing human KCNT1; Tl+ flux stimulated with EC80 of agonist Loxapine

Row | SMILES | IC50
1 | CC(O)c1cc(-c2cc3n(n2)CCCC3NC(=O)c2cc(C(F)(F)F)nn2C)ccn1 (centres unmarked) | > 1000 nM
2 | Cn1nc(C(F)(F)F)cc1C(=O)N[C@H]1CCCn2nc(-c3ccnc(C(F)(F)F)c3)cc21 | < 250 nM
